Assay results reported in patent US20240091235A1, “USE AS SELECTIVE AGONIST OF MELANOCORTIN-4 RECEPTOR” (priority 2020, published 2024).

Protein sequences, listed by entry. Tags and fused reporters are not part of them.
UniProt P32245, whole entry: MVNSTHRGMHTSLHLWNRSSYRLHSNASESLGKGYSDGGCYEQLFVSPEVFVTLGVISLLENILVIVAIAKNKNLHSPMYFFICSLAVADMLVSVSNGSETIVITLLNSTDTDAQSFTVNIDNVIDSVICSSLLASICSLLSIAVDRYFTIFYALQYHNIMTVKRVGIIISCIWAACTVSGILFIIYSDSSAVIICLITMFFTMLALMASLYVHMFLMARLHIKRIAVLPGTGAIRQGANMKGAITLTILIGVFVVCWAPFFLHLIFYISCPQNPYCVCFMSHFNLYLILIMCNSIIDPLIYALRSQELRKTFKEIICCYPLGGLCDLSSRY

Key:
Assay type in all cases: cell-based
[1] = target: T1, MC4R (Homo sapiens, UniProt P32245); assay: Pathhunter eXpress β-arrestin assay (U2OS cell line), MC4R; parameters: expressed in transfected cells; host or cells: U2OS (Pathhunter eXpress β-arrestin cell line); conditions: read-out: EC50 (nM) β-Arrestin MC4R, 90 minutes at 37° C.
Source text: A Pathhunter eXpress β-arrestin cell line (U2OS cell line) in which Prolink (PK)-tagged MC1R and MC4R, and enzyme acceptor (EA)-tagged β-arrestin were expressed together was established. When the MCR-PK portion of this cell line is activated, β-arrestin-EA is mobilized, and enzyme acceptor (EA) and Prolink (PK), which are the β-galactosidase enzyme fragments, interact. The activated enzyme hydrolyzes the substrate by β-galactosidase activity to produce a chemiluminescent signal, so that the activity can be measured. After the Pathhunter eXpress β-arrestin cell line (U2OS cell line) was incubated, the cells were inoculated into each well of the cell culture plate and incubated for 48 hours in a 37° C. incubator in the presence of 5% CO2. After the incubation, 5 μL of the sample diluted 5 times with buffer was added, the vehicle concentration was set to 1%, and the MC4R agonist compound diluted at each step concentration was added, followed by reaction at 37° C. for 90 minutes. The activity (%) of each agonist compound is expressed as 100%×(average RLU value of sample−average RLU value of vehicle control)/(average maximum value of control ligand−average RLU value of vehicle control), and the value was analyzed by CBIS data analysis suite (ChemInnovation, CA).

[2] = target: T2, melanocortin-4 receptor (MC4R) (Homo sapiens, UniProt P32245); assay: Luciferase assay (CRE-LUC), HEK MC4R-Luc cells; conditions: luminescence relative to 10 μM NDP-α-MSH
T2 construct: expressed in transfected cells
Experimental: In order to measure the agonist ability for melanocortin-1 receptor (MC1R) and melanocortin-4 receptor (MC4R), a cell line that permanently expresses MC1R, MC4R and the luciferase gene (CRE-LUC) under the control of CRE (cAMP response element) was established.
After a mammalian cell expression vector (pCDNA3 (Neo)) (Invitrogen) containing the MC1R and MC4R genes was prepared, human embryonic kidney (HEK) cell lines were transformed by using Lipofectamine 2000 (Invitrogen) together with a vector (pCRE-Luc)(Stratagen) expressing a luciferase gene (CRE-LUC) under the control of a cAMP response element (CRE). […] Each well was treated with 50 μL of a Bright-Glo luciferase reagent (Promega) and left at room temperature for 15 minutes, and then the luminescence of each well was measured by using a luminometer (Victor).
HEK MC1R-Luc cells and HEK MC4R-Luc cells were added to each well of a 96-well luminometer cell culture plate (Costar) to a size of 2.5×10^4 cells in 100 μL of a culture medium and then incubated in a 37° C. incubator in the presence of 6% CO2 for 18 hours. […] Each well was treated with 50 μL of a Bright-Glo luciferase reagent (Promega) and left at room temperature for five minutes, and then the luminescence of each well was measured by using a luminometer (Victor). […] The measurements were measured using statistical software (Prizm).

[3] = target: T1, MC4R; assay: cAMP Hunter Gs-coupled cAMP assay (CHO-K1 cell line), MC4R; parameters: expressed in transfected cells; host or cells: CHO-K1 (cAMP Hunter Gs-coupled cell line); conditions: 30 minutes at 37° C.
Experimental: After cAMP Hunter Gs-coupled cell lines (CHO-K1 cell line) in which each of MC1R and MC4R was overexpressed were established so that the increase in the cAMP level in cells due to agonist reaction was measurable, the cells were inoculated into each well of a white cell culture plate and incubated for 24 hours in a 37° C. incubator in the presence of 5% CO2. After the incubation, the medium was removed, and 15 μL of a 2:1 HBBS/10 mM HEPES:cAMP XS+Ab reagent was added. After 5 μL of the sample diluted 4 times with buffer was added, the vehicle concentration was set to 1%, and the MC4R agonist compound diluted at each step concentration was added, followed by reaction at 37° C. for 30 minutes. The activity (%) of each agonist compound is expressed as 100%×(average RLU value of sample−average RLU value of vehicle control)/(average RLU value of max control−average RLU value of vehicle control), and the value was analyzed by CBIS data analysis suite (ChemInnovation, CA).

**Q.** Which results are given for α-MSH [reference compound]?
**A.** EC50 [1]: 23.5 nM; EC50 [2]: 17.5 nM; EC50 [3]: 9.62 nM
